Sequences of proteins named here, by UniProt entry; tags and fusion partners are left off. A change or cut given only in a name is not applied to a line headed by its entry.
UniProt P12931: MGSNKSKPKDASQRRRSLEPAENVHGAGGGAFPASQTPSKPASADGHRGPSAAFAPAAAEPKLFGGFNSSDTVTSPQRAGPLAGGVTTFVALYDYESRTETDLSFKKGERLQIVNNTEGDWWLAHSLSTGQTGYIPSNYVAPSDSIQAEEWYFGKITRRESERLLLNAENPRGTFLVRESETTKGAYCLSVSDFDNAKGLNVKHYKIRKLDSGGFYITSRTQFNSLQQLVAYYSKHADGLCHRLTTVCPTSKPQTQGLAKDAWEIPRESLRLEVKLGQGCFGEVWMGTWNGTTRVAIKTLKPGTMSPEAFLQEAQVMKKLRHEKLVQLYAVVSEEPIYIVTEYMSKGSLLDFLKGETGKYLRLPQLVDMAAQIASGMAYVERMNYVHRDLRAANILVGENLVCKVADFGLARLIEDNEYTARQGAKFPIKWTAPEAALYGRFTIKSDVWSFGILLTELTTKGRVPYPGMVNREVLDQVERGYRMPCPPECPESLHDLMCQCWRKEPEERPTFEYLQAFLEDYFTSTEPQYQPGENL

In ChEMBL document CHEMBL1145907, “Requirements for specific binding of low affinity inhibitor fragments to the SH2 domain of (pp60)Src are identical to those for high affinity binding of full length inhibitors” (J Med Chem, 2003):

Molecular target: Proto-oncogene tyrosine-protein kinase Src (Homo sapiens, UniProt P12931)
Assay: Inhibitory activity against SH2 domain of human p60 c-Src tyrosine kinase using surface plasmon resonance (SPR) assay.

IC50: 3.2 mM
Compound: O=C(O)C(c1ccccc1)S(=O)(=O)O (stereo unspecified)
